The text below walks through data of patent publication US12606543B2, “Indole derivatives as serotonergic agents useful for the treatment of disorders related thereto” (priority 2023, dated 2026).

Protein sequences, listed by entry. Tags and fused reporters are not part of them.
UniProt P08908, whole entry: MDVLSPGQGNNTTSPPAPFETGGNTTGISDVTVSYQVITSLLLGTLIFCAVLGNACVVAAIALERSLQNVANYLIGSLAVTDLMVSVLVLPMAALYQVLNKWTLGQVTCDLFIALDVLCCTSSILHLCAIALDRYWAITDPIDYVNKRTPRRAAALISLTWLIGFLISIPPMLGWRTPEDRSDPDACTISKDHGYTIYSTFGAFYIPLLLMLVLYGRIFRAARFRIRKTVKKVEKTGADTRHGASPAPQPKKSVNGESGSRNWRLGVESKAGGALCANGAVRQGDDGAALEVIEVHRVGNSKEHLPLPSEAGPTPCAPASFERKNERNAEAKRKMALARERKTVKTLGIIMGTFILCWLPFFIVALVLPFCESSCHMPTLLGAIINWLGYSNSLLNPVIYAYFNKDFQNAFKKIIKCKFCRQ

Assay [1] concerns the target human 5-hydroxytryptamine receptor 1A (5-HT1A) (Homo sapiens, UniProt P08908). The assay can be described thus: Human 5-HT1A radioligand binding assay ([3H]-8-Hydroxy-DPAT). The note with it: [3H]-8-Hydroxy-DPAT displacement, cell membrane, 27° C., 90 min; read-out: h5-HT1A, IC50. The protocol:
The objective of this study was to evaluate the binding properties of test compounds on 5-hydroxytryptamine receptor 1A (5-HT1A).
1. The assay buffer was prepared following Table 25 below.
2. 8 doses of reference and test compounds were prepared starting from 10 mM stock solution as required by 5-fold serial dilutions with 100% (v/v) DMSO.
3. UniFilter-96 GF/B plate was pretreated: • i. 50 μl/well of 0.5% (v/v) PEI was added to UniFilter-96 GF/B plates. The plates were sealed and incubated at 4° C. for 3 hrs. • ii. After incubation, the plates were washed 3 times with ice-cold wash buffer (50 mM Tris, pH7.4).
4. Assay plate was prepared: • i. Cell membrane was diluted with assay buffer and 100 μl/well was added to 96 round well plates to reach a concentration of 20 μg/well. • ii. 8 concentrations of reference or test compounds were prepared and 50 μl/well was added to 96 round deep well plates. • iii. […]
10. The plate was read by using a Microbeta^2 microplate counter.
1. For reference and test compounds, the results were expressed as % Inhibition, using the normalization equation: N=100−100×(U−C2)/(C1−C2), where U is the unknown value, C1 is the average of high controls, and C2 is the average of low controls.
2. The IC50 was determined by fitting percentage of inhibition as a […] of compound concentrations with Hill equation using XLfit. […]

Assay [2] concerns the target T1, human 5-HT1A receptor (Homo sapiens, UniProt P08908).
T1 construct: expressed in transfected cells; host or cells: CHO-K1
As to the kind of experiment: Human 5-HT1A cAMP assay. The assay is classed as cell-based. The protocol: Compound potency (EC50) and efficacy (Max response) against the human 5-HT1A receptor in stably transfected CHO-K1 cells were determined in a GPCR cell-based CAMP assay.
Cells were seeded in a total volume of 20 μL into white walled, 384-well microplates and incubated at 37° C. overnight before analysis. Prior to testing, cell plating media was exchanged with 10 μL of Assay buffer (HBSS+10 mM HEPES). Briefly, intermediate dilution of sample stocks were performed to generate 4× sample in assay buffer. 5 μL of 4× samples+5 μL of 4× forskolin were added to cells and incubated at 37° C. for 30 minutes (mins). The final assay vehicle concentration was 1%.
Cells were seeded in a total volume of 20 μL into white walled, 384-well microplates and incubated at 37° C. overnight before analysis. Prior to testing, cell plating media was exchanged with 10 μL of Assay buffer (HBSS+10 mM HEPES). Briefly, intermediate dilution of sample stocks was performed to generate 4× samples in assay buffer. 5 μL of 4× samples+5 μL of 4× forskolin was added to cells and incubated at 37° C. for 30 mins. The final assay vehicle concentration was 1%.
On the technique in general: Changes in cAMP serve as a functional read-out for many G protein-coupled receptors.

Structures are written as SMILES.

Take `COc1ccc2[nH]cc(CCN(C)C)c2c1` [5-MeO-DMT]: the half-inhibitory concentration (IC50) (commonly the midpoint of a concentration-inhibition curve) in assay [1] amounted to 6 nM.
As for `COc1ccc2[nH]cc(CCN(C)C)c2c1` [5MeO-DMT], the midpoint of the response in assay [2] (cAMP assay with forskolin, stably transfected CHO-K1 cells, 30 min), the EC50, lay at 12.7 nM. Moreover, in assay [2] (cAMP assay, CHO-K1 cells, relative to maximum response of serotonin), the “Emax (% of serotonin)” value is given as 99.98 % of serotonin.
